# According to US4803208A, “Opiate agonists and antagonists” (Sloan-Kettering Institute For Cancer Research, priority 1985, dated 1989):
# Test system: opiate receptors
# Assay: Irreversible opiate receptor binding/blocking (general statements)
# Details: two washes with incubation at 37° for 10 min
# Procedure: Binding experiments were performed as previously described using 20 mg/ml of tissue (Pasternak et al, Molec Pharmacol 11: 340-351, 1975). In brief, brain membranes were prepared and triplicate samples incubated with [^3 H] labelled ligands and designated drugs for 30 minutes at 25° C., followed by filtration over Whatman GF/B filters. The filters were then counted in Formular 963 scintillation fluor. Specific binding is defined as the difference in binding in the presence and absence of levallorphan (1 uM). […] Each tissue wash included incubation for 10 min. at 37° C., centrifugation and resuspension. Irreversibility experiments included four washes before binding assays were performed, unless otherwise stated.
smiles,measurement,value
"C=CCN1CC[C@]23c4c5ccc(O)c4O[C@H]2C(=O)CC[C@@]3(O)[C@H]1C5 [Naloxone, naloxone]",removal of reversible ligand by washing (in words),effectively removed
